Source: ChEMBL document CHEMBL3430320, “Prediction of Thorough QT study results using action potential simulations based on ion channel screens” (J Pharmacol Toxicol Methods, 2014)

Assays:
[1] = target: T1, Voltage-dependent L-type calcium channel subunit alpha-1C (Homo sapiens, UniProt Q13936); assay: Inhibition of long-lasting type calcium current (hICa) in Chinese Hamster Ovary (CHO) cells expressing hCav1.2 measured using IonWorks Quattro automated patch clamp platform
[2] = target: T1, Voltage-dependent L-type calcium channel subunit alpha-1C; assay: Inhibition of long-lasting type calcium current (ICaL) in HEK293 cells (alpha1C/beta2a/alpha2delta1) cells measured using IonWorks Barracuda automated patch clamp platform

SMILES: Cc1nnc(C(=O)NC(C)(C)c2nc(C(=O)NCc3ccc(F)cc3)c(O)c(=O)n2C)o1
- pIC50 [1]: Inactive
- pIC50 [2]: Inactive
